Legend:
OCT1 [1] = target: T1, OCT1 (Homo sapiens, UniProt O15245); experiment: OCT1 activity: DAPI accumulation in HEK-OCT1 cells; settings: pyrethroid 10 μM
T1 sequence (O15245 1-554): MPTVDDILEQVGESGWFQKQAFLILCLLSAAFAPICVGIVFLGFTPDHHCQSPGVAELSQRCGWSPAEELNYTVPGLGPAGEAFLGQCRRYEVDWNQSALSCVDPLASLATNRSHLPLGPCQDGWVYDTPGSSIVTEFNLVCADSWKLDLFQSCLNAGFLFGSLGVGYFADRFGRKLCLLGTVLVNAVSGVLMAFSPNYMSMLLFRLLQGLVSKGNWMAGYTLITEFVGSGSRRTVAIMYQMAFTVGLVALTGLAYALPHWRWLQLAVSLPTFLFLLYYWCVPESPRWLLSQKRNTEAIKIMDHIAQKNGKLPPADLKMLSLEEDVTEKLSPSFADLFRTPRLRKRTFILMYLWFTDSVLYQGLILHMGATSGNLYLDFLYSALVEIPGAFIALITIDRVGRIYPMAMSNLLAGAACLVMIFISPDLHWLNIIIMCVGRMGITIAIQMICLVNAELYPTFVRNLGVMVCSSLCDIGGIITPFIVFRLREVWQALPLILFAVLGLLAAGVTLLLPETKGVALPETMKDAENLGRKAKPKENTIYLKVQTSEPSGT
Description: (§1) The effects of pyrethroids on activity of ABC and SLC transporters were determined through measuring cellular accumulation or retention of fluorescent or radiolabeled reference substrates for transporters, in the presence or absence of reference inhibitors, as previously described. The nature of cells and reference substrates and inhibitors used for transport assays are summarized in S3 Table.
(§2) The nature of substrates and reference inhibitors and the incubation times with substrates, that varied according to the transporter, were selected in agreement with previous studies and are indicated in S3 Table. The total incubation volume with substrates was 200 μL/well. […] An aliquot of cell lysate (5 μL) was then taken for determining cellular protein content by the Bradford method.
(§3) Intracellular concentrations of reference substrates were initially expressed as fluorescence arbitrary units (for fluorescent dye substrates) or as moles (for radiolabeled substrates) and normalized to cellular protein content, determined by the Bradford method. […]
(§4) The initial tested concentration of pyrethroids was 100 μM. […] Such concentrations were calculated using GraphPad Prism software (GraphPad Software, La Jolla, CA), through nonlinear regression based on the four parameter logistic function using the following equations: […]

Protein sequences, listed by entry. Tags and fused reporters are not part of them. Lines headed by an entry give the natural chain unless they say otherwise; changes in a name come on top.
UniProt O94956: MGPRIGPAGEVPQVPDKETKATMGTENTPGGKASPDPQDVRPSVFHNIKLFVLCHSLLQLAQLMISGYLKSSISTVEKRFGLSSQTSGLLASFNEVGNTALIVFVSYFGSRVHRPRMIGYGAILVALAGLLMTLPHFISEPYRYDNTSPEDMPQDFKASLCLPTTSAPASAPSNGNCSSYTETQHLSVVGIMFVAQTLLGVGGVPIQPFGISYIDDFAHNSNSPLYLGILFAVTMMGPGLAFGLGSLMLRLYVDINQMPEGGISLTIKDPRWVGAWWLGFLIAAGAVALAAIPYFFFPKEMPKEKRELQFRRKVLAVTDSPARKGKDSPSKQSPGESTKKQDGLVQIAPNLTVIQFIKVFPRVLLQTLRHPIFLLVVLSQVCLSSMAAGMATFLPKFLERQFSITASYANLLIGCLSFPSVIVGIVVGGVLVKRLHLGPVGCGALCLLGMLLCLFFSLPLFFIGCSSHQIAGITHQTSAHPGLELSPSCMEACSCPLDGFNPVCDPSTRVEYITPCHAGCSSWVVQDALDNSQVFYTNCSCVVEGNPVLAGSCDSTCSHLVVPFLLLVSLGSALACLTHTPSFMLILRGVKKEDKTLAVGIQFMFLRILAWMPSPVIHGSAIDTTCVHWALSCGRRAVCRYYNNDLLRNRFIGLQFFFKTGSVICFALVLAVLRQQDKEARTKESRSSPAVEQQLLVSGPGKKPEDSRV

OATP2B1 = OATP2B1 (Homo sapiens, UniProt O94956); experiment: OATP2B1 activity: E3S accumulation in HEK-OATP2B1 cells; settings: pyrethroid 100 μM
Description: as §1, §2, §3, §4

OCT1 [2] = target: T1, OCT1; experiment: Dopamine accumulation in OCT1-transfected HEK293 cells; format: cell-based; settings: pyrethroid 10, 100 or 300 μM; 11 nM dopamine, 5 min
Description: HEK-MOCK and HEK-OCT1 cells were incubated with transport assay medium containing 11 nM 3,4-[Ring-2,5,6-^3H]-dopamine, in the absence or presence of the reference OCT1 inhibitor verapamil or of pyrethroids for 5 min at 37°C in the transport assay medium described above. After washing twice with PBS, cells were lysed in distilled water and intracellular accumulation of dopamine was finally measured by scintillation counting.
(A) HEK-OCT1 and HEK-MOCK cells were incubated with 11 nM 3,4-[Ring-2,5,6-^3H]-dopamine in the absence or presence of the reference OCT1 inhibitor verapamil (100 μM) for 5 min at 37°C. Intracellular accumulation of 3,4-[Ring-2,5,6-^3H]-dopamine was then determined by scintillation counting. […] Intracellular accumulation of 3,4-[Ring-2,5,6-^3H]-dopamine was then determined by scintillation counting. Data are expressed as percentages of OCT1-mediated transport of dopamine in control pyrethroid-unexposed cells, determined by subtracting accumulation of dopamine in HEK-MOCK cells from that in HEK-OCT1 cells in the absence of pyrethroids, arbitrarily set at 100% and indicated by a dotted line on the graph.

OCT1 [3] = target: T1, OCT1; experiment: Cis-inhibition of OCT1-mediated TEA accumulation in HEK-OCT1 cells; format: cell-based; settings: pyrethroid 100 μM; 29 μM [14C]-TEA, 5 min
Description: Intracellular accumulation of TEA was then determined by scintillation counting. […] After washing, cells were next re-incubated with 29 μM [1-^14C]-TEA for 5 min at 37°C. Intracellular accumulation of [1-^14C]-TEA was then determined by scintillation counting.

MATE2-K = target: T2, MATE2-K (Homo sapiens, UniProt Q86VL8); experiment: MATE2-K activity: TEA accumulation in HEK-MATE2-K cells; format: cell-based; settings: pyrethroid up to 100 μM
T2 construct: expressed in transfected cells; host or cells: HEK293
T2 sequence (Q86VL8 1-566 isoform Q86VL8-3): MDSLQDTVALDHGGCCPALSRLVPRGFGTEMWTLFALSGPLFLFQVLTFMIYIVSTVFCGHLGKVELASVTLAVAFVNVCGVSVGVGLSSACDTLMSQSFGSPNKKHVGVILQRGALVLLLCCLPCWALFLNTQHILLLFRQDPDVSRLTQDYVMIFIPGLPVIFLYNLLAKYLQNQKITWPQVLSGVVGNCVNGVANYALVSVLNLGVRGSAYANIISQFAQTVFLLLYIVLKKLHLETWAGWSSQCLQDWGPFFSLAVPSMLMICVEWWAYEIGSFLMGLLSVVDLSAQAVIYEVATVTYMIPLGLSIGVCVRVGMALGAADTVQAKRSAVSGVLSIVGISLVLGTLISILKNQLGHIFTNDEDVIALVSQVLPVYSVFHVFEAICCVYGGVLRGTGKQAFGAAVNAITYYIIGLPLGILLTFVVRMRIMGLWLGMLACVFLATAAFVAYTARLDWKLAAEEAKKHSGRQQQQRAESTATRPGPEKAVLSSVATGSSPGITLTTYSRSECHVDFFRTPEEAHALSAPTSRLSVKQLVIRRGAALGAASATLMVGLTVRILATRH

OAT1 = target: T3, OAT1 (Homo sapiens, UniProt Q4U2R8); experiment: OAT1 activity: fluorescein accumulation in HEK-OAT1 cells; format: cell-based; settings: pyrethroid up to 100 μM
T3 construct: host or cells: HEK293
T3 sequence (Q4U2R8 1-563): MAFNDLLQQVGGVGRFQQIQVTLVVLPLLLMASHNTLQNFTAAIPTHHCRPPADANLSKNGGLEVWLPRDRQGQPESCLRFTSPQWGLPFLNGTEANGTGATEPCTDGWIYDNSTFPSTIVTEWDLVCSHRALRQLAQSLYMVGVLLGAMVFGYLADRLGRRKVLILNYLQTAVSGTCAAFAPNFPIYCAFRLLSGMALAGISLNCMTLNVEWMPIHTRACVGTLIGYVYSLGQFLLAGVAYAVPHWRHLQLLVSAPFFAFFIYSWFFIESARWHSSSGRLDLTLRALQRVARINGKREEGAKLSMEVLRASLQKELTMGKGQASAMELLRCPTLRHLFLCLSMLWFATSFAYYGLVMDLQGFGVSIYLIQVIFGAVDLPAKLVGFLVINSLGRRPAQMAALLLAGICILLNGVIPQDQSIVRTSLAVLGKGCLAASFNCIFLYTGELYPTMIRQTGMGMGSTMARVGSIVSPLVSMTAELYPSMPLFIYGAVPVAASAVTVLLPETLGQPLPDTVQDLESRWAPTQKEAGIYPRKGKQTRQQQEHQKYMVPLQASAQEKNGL

CC(C)=CC1C(C(=O)OCN2C(=O)C3=C(CCCC3)C2=O)C1(C)C (stereo not drawn) [tetramethrin]
reduction of OCT1-mediated DAPI accumulation (OCT1 [1]): 66.4%
effect on OATP2B1 activity (OATP2B1): cis-stimulated
effect on OCT1-mediated transport of dopamine (OCT1 [2]): decreased it, but only when used at 100 or 300 μM
cis-effect on TEA accumulation in HEK-OCT1 cells (OCT1 [3]): markedly cis-inhibit
effect on MATE2-K activity (MATE2-K): failed to alter
effect on OAT1 activity (OAT1): failed to alter

Source: article PMC5242521, “Inhibition of Human Drug Transporter Activities by the Pyrethroid Pesticides Allethrin and Tetramethrin” (PLoS ONE, 2017)
